One substance from article PMC10894853, “Distribution and elimination kinetics of midazolam and metabolites after post-resuscitation care: a prospective observational study” (Scientific Reports, 2024) can be followed below.

The data set is described as follows: Non-compartmental pharmacokinetics of midazolam and metabolites in plasma after discontinuation of MDZ infusion (LC-MS/MS). The data set is classed as in vivo, human. The method, then: The PK parameters were obtained using a non-compartmental method with Phoenix WinNonlin (version 8.3.5; Certara, USA). […] The AUC from time 0 to infinity (AUCinf) was calculated as AUClast + Clast/λz, where Clast is the last measurable concentration and λz is the elimination rate constant. The mean residence time was calculated as […]. The estimated t1/2 was calculated from λz based on a previously reported equation[12].
All samples were immediately frozen and stored at –70 ℃ after centrifugation with 3,000 rpm for 10 min and then sent to the Nutrition Food Microbiology Laboratory at Chungnam National University (http://nfml.kr/) to determine the concentration of midazolam and its metabolites using liquid chromatography with tandem mass spectrometry analysis.
The sample preparation method was performed as previously described with some modifications. A 20 µL of sample was mixed with 180 µL of 80% methanol, followed by protein precipitation at 4 °C for 30 min. Subsequently, the supernatant was harvested and added to 1800 µL of distilled water. The pre-treated samples were loaded onto an Oasis HLB Vac RC cartridge (30 mg, 20 cc, Waters) that had been preconditioned with 6 mL of methanol and 6 mL of distilled water. The cartridge was washed with 6 mL distilled water and sequentially eluted with methanol (4 mL). The eluted samples were dried using an evaporator and resuspended with 0.2 mL of methanol for analysis.

As for midazolam glucuronide [MDZ-Glu], where the note is “after discontinuation of MDZ infusion, mean ± SD”, the “t1/2 (elimination half-life)” value was determined as 11.4 ± 17.0 h. Besides, the AUClast (plasma, 0 to 24 h after discontinuation of MDZ infusion, relative concentration, arithmetic mean ± SD) is 2175.6 ± 2212.3 h*ppm. Besides, for the setting “plasma, time 0 to infinity after discontinuation of MDZ infusion, relative concentration, mean ± SD”, the AUCinf is given as 3158.5 ± 2887.2 h*ppm.
